Our source for the efflux ratio and Ratio values is ChEMBL document CHEMBL2429711, “[(11)C]MK-4232: The First Positron Emission Tomography Tracer for the Calcitonin Gene-Related Peptide Receptor” (ACS Med Chem Lett, 2013).

Protein sequences, listed by entry. Tags and fused reporters are not part of them.
UniProt P08183, whole entry: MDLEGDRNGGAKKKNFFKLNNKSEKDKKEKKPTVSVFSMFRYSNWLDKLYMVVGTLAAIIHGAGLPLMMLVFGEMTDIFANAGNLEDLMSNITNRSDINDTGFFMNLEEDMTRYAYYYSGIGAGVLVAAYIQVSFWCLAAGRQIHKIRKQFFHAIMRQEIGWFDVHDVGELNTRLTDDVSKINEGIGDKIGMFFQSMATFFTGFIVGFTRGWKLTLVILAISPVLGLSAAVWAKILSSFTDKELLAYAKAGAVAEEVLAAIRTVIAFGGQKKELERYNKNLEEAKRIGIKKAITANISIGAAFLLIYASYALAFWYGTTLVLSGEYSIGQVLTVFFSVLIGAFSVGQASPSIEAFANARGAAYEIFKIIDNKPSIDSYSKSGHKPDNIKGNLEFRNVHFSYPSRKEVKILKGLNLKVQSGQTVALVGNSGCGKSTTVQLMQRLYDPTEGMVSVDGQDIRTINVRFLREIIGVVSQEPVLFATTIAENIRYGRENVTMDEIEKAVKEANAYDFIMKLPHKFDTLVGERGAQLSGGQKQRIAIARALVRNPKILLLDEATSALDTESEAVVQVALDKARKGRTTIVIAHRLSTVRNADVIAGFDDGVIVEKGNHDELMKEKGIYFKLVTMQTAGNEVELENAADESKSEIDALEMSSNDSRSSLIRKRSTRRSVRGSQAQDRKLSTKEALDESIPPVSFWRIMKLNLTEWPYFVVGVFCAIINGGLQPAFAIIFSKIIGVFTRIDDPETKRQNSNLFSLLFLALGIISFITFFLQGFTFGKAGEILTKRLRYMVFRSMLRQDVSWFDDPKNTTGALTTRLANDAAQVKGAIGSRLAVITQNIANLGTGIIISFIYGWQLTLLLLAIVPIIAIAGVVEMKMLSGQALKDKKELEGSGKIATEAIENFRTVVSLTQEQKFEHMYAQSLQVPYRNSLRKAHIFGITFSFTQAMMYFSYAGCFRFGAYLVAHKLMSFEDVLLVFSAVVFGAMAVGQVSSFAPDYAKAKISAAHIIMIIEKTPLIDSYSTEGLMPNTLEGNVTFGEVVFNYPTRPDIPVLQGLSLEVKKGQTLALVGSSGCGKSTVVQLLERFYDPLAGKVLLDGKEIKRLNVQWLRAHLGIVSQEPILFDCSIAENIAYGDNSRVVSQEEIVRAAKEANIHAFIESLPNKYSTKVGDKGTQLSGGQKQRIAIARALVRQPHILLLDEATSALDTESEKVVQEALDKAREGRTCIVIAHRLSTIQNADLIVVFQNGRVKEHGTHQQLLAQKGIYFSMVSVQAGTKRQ

In one data set the target is MDR1 (ABCB1) (Homo sapiens, UniProt P08183). The data set can be described thus: Efflux ratio of human MDR1-mediated drug transport from basolateral to apical side over apical to basolateral side in pig LLC cells expressing human MDR1 at 5 uM. As to conditions: LLC-PK1. In kind it is ADME, cell-based. The essentials: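 P-gp transport ratio BA/AB in LLC-MDR1 cells, test compound at 5 μM.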

Data set [1] deals with CGRP receptor (Macaca mulatta). The data set can be described thus: Ratio of drug uptake in iv dosed rhesus monkey cerebellum to drug uptake in iv dosed rhesus monkey white matter. To be noted: in vivo.

SMILES strings stand for the structures.

As usually defined, the efflux ratio is the permeability from basolateral to apical divided by that in the opposite direction, in the common usage. On to `CN1C[C@@H](c2cc(F)cc(F)c2)N(CC(=O)Nc2ccc3c(c2)C[C@@]2(C3)C(=O)Nc3ncccc32)C(=O)C1(C)C`, for which the efflux ratio at 5 µM on MDR1 (ABCB1) was 8.9. Also, in data set [1], the Ratio is 1.4.
